The text below walks through data of US11771702B2, “Agonists of PPAR-δ” (priority 2018, dated 2023).

By UniProt entry, the sequences of proteins in these tests, tags left out. Where a name states a change or a piece, a line headed by the entry shows the natural chain unless it says otherwise. Residues count along the entry.
UniProt Q03181, 147-441 limits assumed: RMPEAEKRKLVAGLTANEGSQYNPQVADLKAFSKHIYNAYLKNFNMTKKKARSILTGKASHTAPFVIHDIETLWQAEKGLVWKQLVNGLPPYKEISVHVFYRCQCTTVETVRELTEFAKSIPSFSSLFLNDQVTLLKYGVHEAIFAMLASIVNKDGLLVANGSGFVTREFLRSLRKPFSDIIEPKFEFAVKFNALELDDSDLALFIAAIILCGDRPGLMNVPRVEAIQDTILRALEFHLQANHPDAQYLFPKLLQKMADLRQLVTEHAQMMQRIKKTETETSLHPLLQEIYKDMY
UniProt Q07869, 175-468 limits assumed: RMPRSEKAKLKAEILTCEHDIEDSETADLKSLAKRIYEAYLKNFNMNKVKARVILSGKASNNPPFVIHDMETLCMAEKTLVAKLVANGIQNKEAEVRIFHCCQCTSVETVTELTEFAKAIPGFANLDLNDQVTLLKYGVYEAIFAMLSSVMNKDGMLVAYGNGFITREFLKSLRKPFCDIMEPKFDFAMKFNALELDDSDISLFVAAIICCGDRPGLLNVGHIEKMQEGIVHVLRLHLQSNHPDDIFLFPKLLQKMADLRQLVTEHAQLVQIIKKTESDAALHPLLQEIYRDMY

The structures appear in SMILES notation.

The target in one assay is PPAR-δ (Homo sapiens, UniProt Q03181). Description: GAL4-DBD/PPAR-LBD luciferase reporter agonist assay in HEK293T cells, PPAR-δ. The format is cell-based.
Settings: not given
With `O=C(O)C(=Cc1ccccc1OC(F)F)Sc1nnc(-c2ccc(F)cc2)o1`, the “agonist activity on PPAR-δ” value is “not active”.

The same assay, now with this note: read-out: EC50 PPAR-δ; Table 5.
Consider `COc1ccc(Cl)cc1-c1nnc(SCC(=O)c2cc(C)n(-c3ccc4c(c3)OCCO4)c2C)[nH]1`, for which the concentration giving a half-maximal response (EC50) is not below 10 µM.
`COc1cc(C(=O)/C=C/c2ccccc2OCc2ccccc2)ccc1SCC(=O)O`: the half-maximal effective concentration (EC50) is not below 10 µM.
`CCOc1cc(C=C(CCC(=O)O)c2nc3ccccc3s2)ccc1OCC(=O)N1CCOCC1`: the EC50 was not below 10 µM.
In the case of `O=C(Nc1ccccc1O)C1CCN(C(=O)c2ccc(COc3ccccc3)o2)CC1`, the EC50 is not below 10 µM.
On to `Cc1cccc2c(CN(Cc3ccc(-c4ccc(Cl)cc4)o3)Cc3cc(=O)oc4c(C)c(O)ccc34)cc(=O)oc12`, for which the EC50 is not below 10 µM.
For the compound `O=C(O)C(=Cc1ccccc1OC(F)F)Sc1nnc(-c2ccc(F)cc2)o1`, the EC50 was not below 10 µM.
In the case of `CC(C)Oc1ccc(-c2nn(-c3ccccc3)cc2CNCCCN2CCC(O)CC2)cc1`, the EC50 was not below 10 µM.
Same read-out and setting: with `COc1ccc(C2=NN(c3nc(-c4ccccc4)c(CC(=O)O)s3)C(c3ccco3)C2)cc1` (centres unmarked) the figure was not below 10 µM; with `COc1ccc(C(=O)/C=C/c2ccc(C(F)(F)F)cc2)cc1CSCC(=O)O`, not below 10 µM; with `OC(CN1CCC(CCCC2CCN(CC(O)c3ccccc3)CC2)CC1)c1ccccc1` (centres unmarked), not below 10 µM.
Turning to `O=C(O)c1ccc(OCCOc2ccc(Oc3ccccc3)cc2)cc1`, the half-maximal effective concentration (EC50) was not below 10 µM.
The same measure, in the same setting: as for `O=C(NCc1ccc(COCC(F)(F)F)cc1)N1CCN(c2ccccc2O)CC1`, the figure is not below 10 µM.
For `CCCOc1ccc(OCC(=O)NCc2ccc(OC)c(C(=O)O)c2)cc1`, the EC50 was not below 10 µM.
Still for that read-out and setting: as for `OCCN1CCN(CC(O)COc2ccc(C34CC5CC(CC(C5)C3)C4)cc2)CC1` (centres unmarked), the figure is not below 10 µM.
Turning to `COc1ccc(-c2nnc(SCC(=O)N3CCN(c4cccc(C(F)(F)F)c4)CC3)[nH]2)cc1`, the EC50 is not below 10 µM.
Same read-out and setting: as for `COc1ccc2cc(C(=O)NCCCCCCC(=O)O)ccc2c1`, the figure is not below 10 µM; as for `CC(=NNC(=S)Nc1ccc(C)cc1C)c1ccc(OCCCC(=O)O)cc1`, not below 10 µM.
Still for that read-out and setting: with `Cc1cc(C(=O)COc2ccc(CC(=O)O)cc2)c(C)n1-c1ccc(F)c(Cl)c1` the figure was not below 10 µM; with `Cc1ccc(OCCNC(C(=O)Nc2ccc([N+](=O)[O-])cc2Cl)c2ccccc2)cc1` (centres unmarked), not below 10 µM; with `COc1cc(/C=C/C(=O)OC(C)C(=O)Nc2ccc(C(C)C)cc2)ccc1O` (centres unmarked), not below 10 µM.
On the same count and under the same terms, as for `COc1cc(C(=O)/C=C/c2cn(-c3ccccc3)nc2-c2cc3ccccc3o2)ccc1OCC(=O)O`, the figure is not below 10 µM.
For `CC1CCN(c2ccc(NC(=O)CNC(c3ccc(F)cc3)c3cccs3)cc2)CC1` (centres unmarked), the EC50 is not below 10 µM.
As to `O=C(O)COc1ccc(/C=C/C(=O)c2ccc(C3CCCCC3)cc2)cc1`, the EC50 is not below 10 µM.
For `CCOc1cc(/C=C/c2cc(C(=O)O)c3ccccc3n2)ccc1OC(F)F`, the EC50 was not below 10 µM.
In the case of `CCCCCCCCCCCCCCCCNC(=O)CCC(=O)O`, the EC50 was not below 10 µM.
On to `COc1cc(/C=C/C(=O)c2ccc(SCC(=O)O)c(OC)c2)ccc1OC(F)F`, for which the EC50 is not below 10 µM.
For `Cc1ccc2[nH]c(SCC(=O)c3cc(C)n(-c4ccc5c(c4)OCCO5)c3C)nc2c1`, the concentration giving a half-maximal response (EC50) is not below 10 µM.
On the same count and under the same terms, with `Cc1cc(C(=O)COC(=O)c2ccc(O)cc2O)c(C)n1-c1ccc(OC(F)F)cc1` the figure was not below 10 µM; with `O=C(O)CCCOc1ccc(C(=O)/C=C/c2cnn(Cc3ccccc3Cl)c2)cc1`, not below 10 µM.
Consider `COc1cc(C=C(Sc2nnc(-c3ccc(F)cc3)o2)C(=O)O)ccc1OC(F)F`, for which the EC50 was not below 10 µM.
On to `O=C(O)c1ccc2c(=O)n3c(nc2c1)C(=Cc1ccc(OCc2ccccc2)cc1)CCCC3`, for which the EC50 was not below 10 µM.
Consider `COc1ccc(CCC(=O)Nc2ccc(/C=C/C(=O)O)cc2)cc1OC`, for which the EC50 is not below 10 µM.
With `COc1ccc(CCNC(=O)N2CCC(c3ccc(O)cc3)CC2)cc1OC`, the EC50 is not below 10 µM.
On the same count and under the same terms, as for `O=C(O)COc1ccc(C=C2CN(Cc3ccccc3)Cc3c2nc2ccccc2c3C(=O)O)cc1`, the figure is not below 10 µM.
On to `COc1ccc(C(=O)/C=C/c2cccc(C(F)(F)F)c2)cc1CSCC(=O)O`, for which the EC50 is not below 10 µM.
Still for that read-out and setting: as for `CC(OC(=O)c1ccc(CO)cc1)C(=O)Nc1ccc(OCc2ccccc2)cc1` (centres unmarked), the figure is not below 10 µM.
Same read-out and setting: with `O=C(CCc1ccccc1O)NCc1ccc(Oc2cccnc2)c(F)c1` the figure was not below 10 µM.
The same measure, in the same setting: as for `COc1ccc(C(=O)/C=C/c2ccc(OC(F)F)c(OC)c2)cc1CSCC(=O)O`, the figure is not below 10 µM; as for `CCc1ccc(-c2nnc(SCC(=O)c3cc(C)n(-c4cccc(C(F)(F)F)c4)c3C)[nH]2)cc1`, not below 10 µM.
As to `COc1cc(C(=O)NCc2ccc(C(=O)O)cc2)cc(Cl)c1OCC(C)C`, the concentration giving a half-maximal response (EC50) was not below 10 µM.
Still for that read-out and setting: as for `O=C(COc1ccc(C(=O)/C=C/c2cccc(O)c2)cc1)Nc1ccccc1`, the figure is not below 10 µM; as for `COc1ccc(C(=O)/C=C/c2ccc(-c3ccccc3)cc2)cc1CSCC(=O)O`, not below 10 µM.
Still for that read-out and setting: with `COc1ccc(CNC(=O)c2ccc(OCCC(C)C)cc2)cc1C(=O)O` the figure was not below 10 µM; with `Cc1cccc(OCC(=O)NCc2ccc(N3CCC(CO)CC3)cc2)c1`, not below 10 µM; with `CCCc1cc(O)nc(SCC(=O)NC(c2ccccc2)c2ccc(OC)cc2)n1` (centres unmarked), not below 10 µM.
On to `Cc1ccc(C(=O)Nc2cccc(CNCc3cccc(C(F)(F)F)c3)c2)cc1`, for which the half-maximal effective concentration (EC50) was not below 10 µM.
On to `COc1cc(CNC2CCOc3ccccc32)ccc1OCC(=O)Nc1ccc(F)c(Cl)c1` (centres unmarked), for which the EC50 is not below 10 µM.
Turning to `CCn1c(-c2ccc3c(c2)OCCO3)cnc1SCC(=O)c1ccc(O)cc1O`, the concentration for a half-maximal effect (EC50) is not below 10 µM.
The same measure, in the same setting: with `CC(Oc1ccc(C(=O)NCc2cc([N+](=O)[O-])ccc2O)cn1)c1ccccc1` (centres unmarked) the figure was not below 10 µM.
Still for that read-out and setting: with `O=c1oc2c(CN3CCN(CCO)CC3)c(O)ccc2cc1-c1nc2ccccc2s1` the figure was not below 10 µM.
On the same count and under the same terms, as for `Cc1nn(-c2ccccc2)c(Cl)c1/C=C/C(=O)c1ccc(OCCCC(=O)O)cc1`, the figure is not below 10 µM.
Regarding `COc1ccc(NC(=O)c2ccc(COC(=O)c3ccc(C)c(O)c3)cc2)cc1`, the EC50 was not below 10 µM.
On the same count and under the same terms, with `COc1ccc(C(NCC(=O)Nc2ccc(N3CCCC3)cc2)c2ccccc2)cc1` (centres unmarked) the figure was not below 10 µM; with `O=C(O)C(=Cc1ccc(OC(F)F)cc1)Sc1nnc(-c2ccc(F)cc2)o1`, not below 10 µM; with `COc1ccc(Oc2ccc(CNC(=O)c3cc4c(cc3O)OCO4)cn2)cc1`, not below 10 µM.
Take `COc1ccc(C(=O)/C=C/c2ccc(C(C)(C)C)cc2)cc1CSCC(=O)O`: the EC50 is not below 10 µM.
Same read-out and setting: as for `Cc1cc(C(=O)CSc2n[nH]c(-c3ccccc3)n2)c(C)n1Cc1ccc2c(c1)OCO2`, the figure is not below 10 µM; as for `COc1cc(/C=C/C(=O)OCc2csc(Nc3ccc(C)cc3)n2)ccc1O`, not below 10 µM; as for `COc1ccc(-c2cc(COc3cc4ccccc4cc3C(=O)O)on2)cc1`, not below 10 µM.
Same read-out and setting: as for `COc1cc(CN(C)C(=O)NCc2cccc(O)c2)ccc1OCc1ccccc1`, the figure is not below 10 µM; as for `COc1cc(C=C2CCn3c2nc2cc(C(=O)O)ccc2c3=O)ccc1OCc1ccc(Cl)cc1`, not below 10 µM; as for `Cc1nn(-c2ccccc2)c(Cl)c1/C=C/C(=O)c1ccc(OC(C)C(=O)O)cc1` (centres unmarked), not below 10 µM.
Consider `COc1cc(/C=C/C(=O)OCC(=O)Nc2ccc(C(C)C)cc2)ccc1O`, for which the EC50 was not below 10 µM.

The target in another assay is PPAR-α (Homo sapiens, UniProt Q07869). Kind of assay: GAL4-DBD/PPAR-LBD luciferase reporter agonist assay in HEK293T cells, PPAR-α. The format is cell-based.
Settings: not given
Take `O=C(O)C(=Cc1ccccc1OC(F)F)Sc1nnc(-c2ccc(F)cc2)o1`: the “agonist activity on PPAR-α” value is “not active”.
